ChEMBL document CHEMBL1143706, “Design, synthesis, and biological evaluation of novel bifunctional C-terminal-modified peptides for delta/mu opioid receptor agonists and neurokinin-1 receptor antagonists” (J Med Chem, 2007)

Test: Ratio of IC50 for mu opioid receptor in GPI assay to IC50 for delta opioid receptor in MVD assay
Format: functional

Work on `C[C@@H](NC(=O)[C@@H](N)Cc1ccc(O)cc1)C(=O)NCC(=O)N[C@@H](Cc1ccccc1)C(=O)NNC(=O)[C@H](Cc1ccccc1)NC(=O)CNC(=O)[C@@H](C)NC(=O)[C@@H](N)Cc1ccc(O)cc1` yielded a Ratio IC50 of 3.2.
